Measurements reported in ChEMBL document CHEMBL4371007, “Biased Ligands of G Protein-Coupled Receptors (GPCRs): Structure-Functional Selectivity Relationships (SFSRs) and Therapeutic Potential” (J Med Chem, 2018).

Legend:
[1] = biological target: T1, Nociceptin receptor (Homo sapiens, UniProt P41146); assay: Agonist activity at YFP-fused human NOPR expressed in HEK293 cells assessed as inhibition of forskolin-mediated cAMP accumulation measured immediately by luminescence assay
[2] = biological target: T1, Nociceptin receptor; assay: Agonist activity at human NOPR expressed in human BHK cells assessed as inhibition of forskolin-mediated cAMP accumulation after 10 mins by radioimmuno assay
[3] = biological target: T2, Kappa-type opioid receptor (Homo sapiens, UniProt P41145); assay: Agonist activity at kappa opioid receptor (unknown origin) expressed in HEK cells co-expressing luciferase based cAMP biosensor assessed as increase in cAMP accumulation after 20 to 30 mins by luciferase reporter gene assay
[4] = biological target: T2, Kappa-type opioid receptor; assay: Agonist activity at kappa opioid receptor (unknown origin) assessed as increase in venus-tagged N-terminal beta-arrestin-2 recruitment by BRET assay

CCn1c(=O)n([C@@H]2CCN(C3CCC(C(C)C)CC3)C[C@H]2CO)c2ccccc21 (stereo not given in full)
pEC50 [1]: 8.14

COC(=O)CN1CN(c2ccccc2)C2(CCN(Cc3cccc4ccccc34)CC2)C1=O
pEC50 [2]: 7.58

CCn1c(=O)n([C@@H]2CCN(CC3CCCC4CCCCC43)C[C@H]2CO)c2ccccc21 (stereo not given in full)
pEC50 [1]: 7.14

COC(=O)[C@@H]1C[C@H](OC(=O)CSC#N)C(=O)[C@H]2[C@@]1(C)CC[C@H]1C(=O)O[C@H](c3ccoc3)C[C@]21C
EC50 [3]: 5.2 nM
EC50 [4]: 1130 nM
